According to ChEMBL document CHEMBL1154010, “Aziridine alkaloids as potential therapeutic agents” (Eur J Med Chem, 2009):

Experiment: Dissociation constant of the compound

For `C1CN1`, the pKa was 7.98.
